According to article PMC3529200 (Bioorganic & medicinal chemistry letters, 2010):

Test system: SHR hypertension
Assay: SHR rat model of hypertension
Assay type: in vivo
Details: 100 mg/kg

CC(=O)N1CCC(NC(=O)NC23CC4CC(CC(C4)C2)C3)CC1 [Compound 14a, 1-(1-Acetyl-piperidin-4-yl)-3-adamantan-1-yl-urea]
effect on mean blood pressure: no effect
